Laboratory results: paper PMC9571170, “Exploring Active Ingredients, Beneficial Effects, and Potential Mechanism of Allium tenuissimum L. Flower for Treating T2DM Mice Based on Network Pharmacology and Gut Microbiota” (Nutrients, 2022)

Target: α−Glucosidase (from yeast)
Test: In vitro α−glucosidase inhibitory activity assay (PNPG substrate)
Assay type: biochemical
Description: The α−glucosidase inhibitory activity assay method of A. tenuissimum flower flavonoids was slightly modified based on previous studies. A 96−well plate was used for preparing the mixture consisting of 0.1 M PBS (pH 6.8), 1.0 mg/mL sample solution, and 2 U/mL α−glucosidase, which were incubated at 37 °C for 10 min. 20 μL PNPG solution (2.5 Mm, dissolved in PBS) was added to each well to start the reaction and incubated at 37 °C. Twenty minutes later, 80 μL Na2CO3 solution (0.2 mol/L) was added to each well to terminate the reaction. The absorbance was measured at 405 nm by Tecan Infinite M200 PRO (Tecan Trading Co. Ltd., Shanghai, China). […] The inhibitory rate was calculated by the absorbance formula below:Inhibition% = [1 − (Aa − Ab) / Ac] × 100% a. 20 μL PNPG + 80 μL Na2CO3 + 20 μL PBS + 20 μL sample + 20 μL enzyme; b. 20 μL PNPG + 80 μL Na2CO3 + 40 μL PBS +20 μL sample; c. 20 μL PNPG + 80 μL Na2CO3 + 40 μL PBS + 20 μL enzyme.

Compound: COc1cc(O)c2c(=O)c(O)c(-c3ccc(O)cc3)oc2c1 [AF−37, rhamnocitrin]
- IC50: 191 ± 28 µM
